CycPeptMPDB entries from one study

PAMPA is the parallel artificial membrane permeability assay, which has no cells and reads passive diffusion.
Permeability is given as log10 of P in cm/s; higher (less negative) is more permeable.

CC(=O)N1CCC[C@@H]1C(=O)N(C)[C@@H](CC(C)C)C(=O)N[C@@H]1C(=O)N(C)[C@@H](CC(C)C)C(=O)N[C@H](CC(C)C)C(=O)N(C)[C@H](CC(C)C)C(=O)N(C)[C@@H](C)C(=O)N[C@H](CC(C)C)C(=O)N2CCC[C@H]2C(=O)O[C@@H]1C is reported with PAMPA -5.36 (log10 cm/s).
CC(=O)N1CCC[C@H]1C(=O)N(C)[C@@H](CC(C)C)C(=O)N[C@@H]1C(=O)N[C@H](CC(C)C)C(=O)N(C)[C@@H](CC(C)C)C(=O)N(C)[C@H](CC(C)C)C(=O)N[C@@H](C)C(=O)N[C@H](CC(C)C)C(=O)N2CCC[C@H]2C(=O)O[C@@H]1C is reported with PAMPA -5.29 (log10 cm/s).
CC(=O)N1CCC[C@@H]1C(=O)N(C)[C@H](CC(C)C)C(=O)N[C@@H]1C(=O)N(C)[C@@H](CC(C)C)C(=O)N[C@@H](CC(C)C)C(=O)N(C)[C@@H](CC(C)C)C(=O)N(C)[C@H](C)C(=O)N[C@H](CC(C)C)C(=O)N2CCC[C@@H]2C(=O)O[C@@H]1C is reported with PAMPA -5.25 (log10 cm/s).
CC(=O)N1CCC[C@@H]1C(=O)N(C)[C@@H](CC(C)C)C(=O)N[C@@H]1C(=O)N[C@H](CC(C)C)C(=O)N(C)[C@H](CC(C)C)C(=O)N(C)[C@H](CC(C)C)C(=O)N(C)[C@@H](C)C(=O)N[C@@H](CC(C)C)C(=O)N2CCC[C@H]2C(=O)O[C@@H]1C is reported with PAMPA -5.31 (log10 cm/s).
CC(=O)N1CCC[C@H]1C(=O)N[C@@H]1C(=O)N(C)[C@H](CC(C)C)C(=O)N[C@H](CC(C)C)C(=O)N[C@H](CC(C)C)C(=O)N(C)[C@H](CC(C)C)C(=O)N(C)[C@@H](C)C(=O)N[C@@H](CC(C)C)C(=O)N2CCC[C@@H]2C(=O)O[C@@H]1C is reported with PAMPA -6.68 (log10 cm/s).
CC(=O)N1CCC[C@@H]1C(=O)N(C)[C@@H](CC(C)C)C(=O)N[C@@H]1C(=O)N(C)[C@H](CC(C)C)C(=O)N(C)[C@@H](CC(C)C)C(=O)N[C@@H](CC(C)C)C(=O)N(C)[C@H](C)C(=O)N[C@@H](CC(C)C)C(=O)N2CCC[C@@H]2C(=O)O[C@@H]1C is reported with PAMPA -6.01 (log10 cm/s).
CC(=O)N1CCC[C@H]1C(=O)N[C@@H]1C(=O)N[C@H](CC(C)C)C(=O)N(C)[C@@H](CC(C)C)C(=O)N[C@H](CC(C)C)C(=O)N(C)[C@@H](CC(C)C)C(=O)N(C)[C@@H](C)C(=O)N[C@@H](CC(C)C)C(=O)N2CCC[C@@H]2C(=O)O[C@@H]1C is reported with PAMPA -5.84 (log10 cm/s).
CC(=O)N1CCC[C@@H]1C(=O)N(C)[C@H](CC(C)C)C(=O)N[C@@H]1C(=O)N(C)[C@@H](CC(C)C)C(=O)N[C@@H](CC(C)C)C(=O)N[C@@H](CC(C)C)C(=O)N(C)[C@@H](C)C(=O)N[C@@H](CC(C)C)C(=O)N2CCC[C@@H]2C(=O)O[C@@H]1C is reported with PAMPA -6.57 (log10 cm/s).
CC(=O)N1CCC[C@H]1C(=O)N(C)[C@@H](CC(C)C)C(=O)N[C@@H]1C(=O)N[C@H](CC(C)C)C(=O)N(C)[C@@H](CC(C)C)C(=O)N[C@@H](CC(C)C)C(=O)N(C)[C@H](C)C(=O)N[C@H](CC(C)C)C(=O)N2CCC[C@H]2C(=O)O[C@@H]1C is reported with PAMPA -5.61 (log10 cm/s).
CC(=O)N1CCC[C@H]1C(=O)N(C)[C@H](CC(C)C)C(=O)N[C@@H]1C(=O)N[C@@H](CC(C)C)C(=O)N[C@@H](CC(C)C)C(=O)N(C)[C@@H](CC(C)C)C(=O)N(C)[C@@H](C)C(=O)N[C@@H](CC(C)C)C(=O)N2CCC[C@@H]2C(=O)O[C@@H]1C is reported with PAMPA -5.69 (log10 cm/s).
CC(=O)N1CCC[C@@H]1C(=O)N(C)[C@@H](CC(C)C)C(=O)N[C@@H]1C(=O)N(C)[C@@H](CC(C)C)C(=O)N(C)[C@@H](CC(C)C)C(=O)N(C)[C@H](CC(C)C)C(=O)N(C)[C@@H](C)C(=O)N[C@@H](CC(C)C)C(=O)N2CCC[C@H]2C(=O)O[C@@H]1C is reported with PAMPA -5.53 (log10 cm/s).
CC(=O)N1CCC[C@H]1C(=O)N(C)[C@H](CC(C)C)C(=O)N[C@@H]1C(=O)N(C)[C@@H](CC(C)C)C(=O)N[C@@H](CC(C)C)C(=O)N(C)[C@@H](CC(C)C)C(=O)N(C)[C@H](C)C(=O)N[C@H](CC(C)C)C(=O)N2CCC[C@@H]2C(=O)O[C@@H]1C is reported with PAMPA -5.38 (log10 cm/s).
CC(=O)N1CCC[C@H]1C(=O)N(C)[C@@H](CC(C)C)C(=O)N[C@@H]1C(=O)N(C)[C@@H](CC(C)C)C(=O)N[C@H](CC(C)C)C(=O)N(C)[C@@H](CC(C)C)C(=O)N(C)[C@@H](C)C(=O)N[C@H](CC(C)C)C(=O)N2CCC[C@@H]2C(=O)O[C@@H]1C is reported with PAMPA -5.76 (log10 cm/s).
CC(=O)N1CCC[C@@H]1C(=O)N(C)[C@H](CC(C)C)C(=O)N[C@@H]1C(=O)N[C@H](CC(C)C)C(=O)N(C)[C@@H](CC(C)C)C(=O)N(C)[C@H](CC(C)C)C(=O)N(C)[C@H](C)C(=O)N[C@@H](CC(C)C)C(=O)N2CCC[C@H]2C(=O)O[C@@H]1C is reported with PAMPA -5.49 (log10 cm/s).
CC(=O)N[C@@H]1C(=O)N2CCC[C@H]2C(=O)N(C)[C@H](CC(C)C)C(=O)N(C)[C@H](CC(C)C)C(=O)N(C)[C@H](CC(C)C)C(=O)N(C)[C@@H](CC(C)C)C(=O)N(C)[C@H](C)C(=O)N[C@@H](CC(C)C)C(=O)N2CCC[C@@H]2C(=O)O[C@@H]1C is reported with PAMPA -5.47 (log10 cm/s).
CC(=O)N1CCC[C@H]1C(=O)N(C)[C@@H](CC(C)C)C(=O)N[C@@H]1C(=O)N[C@H](CC(C)C)C(=O)N[C@H](CC(C)C)C(=O)N(C)[C@H](CC(C)C)C(=O)N[C@@H](C)C(=O)N[C@@H](CC(C)C)C(=O)N2CCC[C@H]2C(=O)O[C@@H]1C is reported with PAMPA -6.37 (log10 cm/s).
CC(=O)N1CCC[C@H]1C(=O)N(C)[C@H](CC(C)C)C(=O)N[C@@H]1C(=O)N[C@@H](CC(C)C)C(=O)N(C)[C@@H](CC(C)C)C(=O)N(C)[C@H](CC(C)C)C(=O)N(C)[C@H](C)C(=O)N[C@@H](CC(C)C)C(=O)N2CCC[C@H]2C(=O)O[C@@H]1C is reported with PAMPA -5.64 (log10 cm/s).
CC(=O)N1CCC[C@@H]1C(=O)N(C)[C@H](CC(C)C)C(=O)N[C@@H]1C(=O)N(C)[C@H](CC(C)C)C(=O)N(C)[C@H](CC(C)C)C(=O)N[C@@H](CC(C)C)C(=O)N(C)[C@H](C)C(=O)N[C@@H](CC(C)C)C(=O)N2CCC[C@H]2C(=O)O[C@@H]1C is reported with PAMPA -5.86 (log10 cm/s).
CC(=O)N1CCC[C@@H]1C(=O)N(C)[C@H](CC(C)C)C(=O)N[C@@H]1C(=O)N(C)[C@@H](CC(C)C)C(=O)N[C@@H](CC(C)C)C(=O)N(C)[C@@H](CC(C)C)C(=O)N(C)[C@@H](C)C(=O)N[C@H](CC(C)C)C(=O)N2CCC[C@H]2C(=O)O[C@@H]1C is reported with PAMPA -6.91 (log10 cm/s).
CC(=O)N1CCC[C@H]1C(=O)N(C)[C@H](CC(C)C)C(=O)N[C@@H]1C(=O)N[C@H](CC(C)C)C(=O)N[C@@H](CC(C)C)C(=O)N[C@H](CC(C)C)C(=O)N(C)[C@@H](C)C(=O)N[C@@H](CC(C)C)C(=O)N2CCC[C@H]2C(=O)O[C@@H]1C is reported with PAMPA -5.13 (log10 cm/s).
CC(=O)N1CCC[C@@H]1C(=O)N(C)[C@H](CC(C)C)C(=O)N[C@@H]1C(=O)N[C@H](CC(C)C)C(=O)N(C)[C@H](CC(C)C)C(=O)N[C@H](CC(C)C)C(=O)N(C)[C@H](C)C(=O)N[C@H](CC(C)C)C(=O)N2CCC[C@H]2C(=O)O[C@@H]1C is reported with PAMPA -5.50 (log10 cm/s).

The last 3 entries again:

| structure (SMILES) | PAMPA (log10 cm/s) |
|---|---|
| CC(=O)N1CCC[C@@H]1C(=O)N(C)[C@H](CC(C)C)C(=O)N[C@@H]1C(=O)N(C)[C@@H](CC(C)C)C(=O)N[C@@H](CC(C)C)C(=O)N(C)[C@@H](CC(C)C)C(=O)N(C)[C@@H](C)C(=O)N[C@H](CC(C)C)C(=O)N2CCC[C@H]2C(=O)O[C@@H]1C | -6.91 |
| CC(=O)N1CCC[C@H]1C(=O)N(C)[C@H](CC(C)C)C(=O)N[C@@H]1C(=O)N[C@H](CC(C)C)C(=O)N[C@@H](CC(C)C)C(=O)N[C@H](CC(C)C)C(=O)N(C)[C@@H](C)C(=O)N[C@@H](CC(C)C)C(=O)N2CCC[C@H]2C(=O)O[C@@H]1C | -5.13 |
| CC(=O)N1CCC[C@@H]1C(=O)N(C)[C@H](CC(C)C)C(=O)N[C@@H]1C(=O)N[C@H](CC(C)C)C(=O)N(C)[C@H](CC(C)C)C(=O)N[C@H](CC(C)C)C(=O)N(C)[C@H](C)C(=O)N[C@H](CC(C)C)C(=O)N2CCC[C@H]2C(=O)O[C@@H]1C | -5.50 |

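Lipid, pH, incubation time, direction and concentration are not recorded in the data file. The list need not hold all peptides of the study. Peptides that the database sets to -10, its floor, are left out.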

Collected by the curators of CycPeptMPDB (Li et al. 2023) from Kelly et al. 2021, doi:10.1021/jacs.0c06115.